Results taken from patent US20230039395A1, “LSD AND […] EQUIVALENCE DETERMINATION” (Universitätsspital Basel, priority 2021, published 2023).

Test: Plasma exposure of LSD and iso-LSD after LSD capsules in previous studies
Conditions: on average, from AUC24 of LSD and iso-LSD

**Q.** With `CCN(CC)C(=O)[C@@H]1C=C2c3cccc4[nH]cc(c34)C[C@H]2N(C)C1` [LSD, lysergic acid diethylamide] as the compound, how does the “share of LSD that may have isomerized to inactive iso-LSD in the capsules” value read?
**A.** 30%
